Test results published in PubChem BioAssay AID526 (National Center for Advancing Translational Sciences (NCATS), 2006).
Some of the results follow. Some of these compounds have results that are not shown, active ones among them. Activity calls are given as the source filed them. Calls follow the shape of the dose curve; as a rule, active = well fitted activation curve with a large enough effect (not every such curve was filed as active); inconclusive = small, poorly fitted or top-dose-only effect, or another doubt; inactive = no such curve, though single readings can be large or run the other way.

Assay: Ubiquitin-GFP Assay
Conditions: Ubiquitin-GFP reporter cells, proteasome inhibition, GFP fluorescence, untreated = 0%, 10 µM MG-132 = 100%; at 9.17 µM unless noted
Source text: NIH Chemical Genomics Center [NCGC]
NIH Molecular Libraries Screening Centers Network [MLSCN]
The ubiquitin-proteasome pathway is present within all eukaryotic cells and plays roles in normal cellular functions and disease-related dysfunction. Proteins are tagged with a poly-ubiquitin chain that targets them for the proteasome, a multimeric protease, that degrades the protein into peptides and free ubiquitin. The proteasome has a key role in regulating cell cycle and growth and is known to control the levels of cyclins and CDK inhibitors as well as tumor suppressor proteins. Additionally, the activation of NF- B is controlled by ubiquitin-labeling and degradation of the inhibitory protein I B . […] With this in mind, proteasome inhibitors such as MG-132 and PS-341 have been used to inhibit tumor cell growth.
A cellular assay for ubiquitin-proteasome function was used to find chemical probes of this pathway. The assay used an ubiquitin-GFP construct expressed in U2OS cells (BioImage). Under basal conditions little GFP can be detected as it is degraded by the proteasome. However, treatment of the cells with a proteasome inhibitor such as MG-132 results in a rise in GFP levels that can be detected in as little as four hours. We used the Acumen-Explorer laser plate cytometer having a 488 nm laser as an excitation light source to detect the GFP. Compounds were screened in 1536-well plates using qHTS with a concentration-titration series range that varied from 46 uM to 2.9 nM.
NCGC Assay Protocol Summary:
Cells (U20S ps 2042) expressing ubiquitin (G76V-GFP) were maintained in DMEM with Glutamax-1 and high glucose, 10% FBS, 1% (v/v) penicillin-streptomycin, 0.5 mg/mL Geneticin (G418). The cells were seeded in 1536-well plates using a solenoid-based dispenser at 700 cells/5ul in DMEM medium with Glutamax-1 and high glucose containing 0.5% FBS, w/o phenol red, 25 mM HEPES. The plates were incubated at 37 °C/5% CO2 overnight. Then 23 nl of MG-132 in DMSO was added to the control wells at a final concentration of 10 uM. Next, 23 nL of library compounds in DMSO were added to the sample wells. The plates were incubated for 4 hrs at 37 °C/5% CO2. Following this incubation the plates were read on the Acumen using a cell object definition of 15 to 100 um in width and depth and a window of Total Intensity of between 77,200 and 2,720,000 FLU to enumerate GFP-expressing cells.
The %Activity was determined from the basal and MG-132 treated control wells. %Activity was determined by normalizing to the difference in signal between basal cells (0% Activity) and cells incubated with 10 uM of the proteasome inhibitor MG-132 (100% Activity). Concentration-response curves were fitted to the signals arising from the GFP fluorescence.
Assay Protocol Summary Table
Sequence Parameter Value Description
2. Time O/N 37C incubation
4. Compound 23 nL Libraries (46 uM to 2.9 nM)
5. Time 4 hr 37C incubation
6. Detector Acumen Total Intensity, GFP fluorescence (488 ex/515 em)
Keywords: NIH Roadmap, MLSCN, MLI, MLSMR, BioImage, proteasome, ubiquitin-GFP, qHTS, NCGC
With `CN(C)c1cccc(C(=O)NCC2(N(C)C)CCCCC2)c1` the activation (GFP accumulation) was inactive: 1.92% [at 45.9 µM].
In the case of `CN1CCC[C@H](OC(=O)[C@](O)(c2ccccc2)C2CCCC2)C1`, the activation (GFP accumulation) is reported as inactive: 8.72%.
In the case of `CN1CC[C@H](OC(=O)[C@](O)(c2ccccc2)C2CCCC2)C1`, the activation (GFP accumulation) is reported as inactive: -2.2%.
For `O=C(OC1CN2CCC1CC2)C(CO)(c1ccccc1)c1ccccc1` (stereo not given), the activation (GFP accumulation) was inactive: -3.09% [at 45.9 µM].
For `C=C(C)C#C[C@@](O)(C(=O)OC1CCN(C)CC1)c1ccccc1`, the activation (GFP accumulation) was inactive: 7.03%.
